This passage reports Activity results from ChEMBL document CHEMBL2396593, “Targeting mutant KRAS for anticancer therapeutics: a review of novel small molecule modulators” (J Med Chem, 2013).

In this experiment the test system is T29Kt1. Put plainly: Cytotoxicity against human T29Kt1 cells by SRB assay. In kind it is functional, cell-based.

Consider `O=Cc1cn(Cc2ccc(Cl)cc2)c2ccccc12`, for which the Activity result was “Dose-dependent effect”.
